US20210292438A1, “CONDITIONAL INTERNALIZATION OF PEGYLATED AGENTS BY PRETARGETING BI-SPECIFIC PEG-BINDING ANTIBODIES FOR DIAGNOSIS AND THERAPY” (ACADEMIA SINICA, priority 2017, published 2021)

System: EGF-induced phosphorylation of EGFR and Erk in A431 cells
Experiment: EGFR signaling, western blot of phospho-EGFR and phospho-ERK
Assay type: cell-based
Settings: 50 nM, 5 nM EGF
Method: To investigate whether PEG engager^EGFR can inhibit EGFR signaling, EGFR-positive A431 cells were untreated or stimulated with 5 nM EGF and then co-incubated with PEG engagers or control antibodies. Phosphorylation of EGFR and Erk were detected by western blotting using anti-phospho EGFR or anti-phospho ERK antibodies. Total EGFR and tubulin served as loading controls.

Substance	inhibition of EGF-induced phosphorylation of EGFR and Erk
Erbitux: monoclonal anti-EGFR IgG	inhibited
Herceptin: negative control antibody, anti-HER2 IgG	did not inhibit
